From article PMC10761686

Assays:
[1] = molecular target: actin filaments (F-actin) of rabbit skeletal muscle actin with tropomyosin (TPM1), barbed ends capped by gelsolin (rabbit | rat) (UniProt P68135)
[2] = molecular target: actin filaments (F-actin) of rabbit skeletal muscle actin with tropomyosin (TPM1), barbed ends capped by gelsolin (rabbit | rat) (UniProt P68135); experiment: pyrene-actin depolymerization assay; inhibition of pointed-end depolymerization with 0.2 uM TPM1; by the methods gelsolin-to-actin 1:100, pyrene-F-actin seeds diluted to 0.6 uM in F-buffer, varying TMOD1; Kd = TMOD1 concentration for 50% maximal capping activity, one-phase exponential decay fit of relative initial rates
[3] = molecular target: actin filaments (F-actin) of rabbit skeletal muscle actin with tropomyosin (TPM1), barbed ends capped by gelsolin (rabbit | rat) (UniProt P68135); experiment: pyrene-actin polymerization assay; inhibition of pointed-end polymerization with 0.2 uM TPM1; by the methods gelsolin-to-actin 1:100, F-actin seeds 0.6 uM with 1 uM G-actin (10% pyrene-actin) in F-buffer, varying TMOD1; Kd = TMOD1 concentration for 50% maximal capping activity, one-phase exponential decay fit of relative initial rates

| Supplementary Table 3: IC50 of inhibition of Lat A-induced actin pointed end depolymerization in the presence of TPM1, sedimentation assay, from actin band densities of the pellet [1] | Supplementary Table 3: IC50 of inhibition of Lat A-induced actin pointed end depolymerization in the presence of TPM1, sedimentation assay, from actin band densities of the supernatant [1] | Kd [2] | Kd [3] | Substance |
| --- | --- | --- | --- | --- |
| 9.8 nM | 11.1 nM | 25.3 nM | 6.63 nM | tropomodulin 1 (TMOD1), wild type, human, recombinant with N-terminal 6xHistidine-tag (from UniProt P28289-1 1-359) (natural protein) |
| 23 nM | 35.1 nM | 79.4 nM | 9.88 nM | tropomodulin 1 (TMOD1) with the patient variant p.R189W, human, recombinant with N-terminal 6xHistidine-tag (from UniProt P28289-1 1-359) (natural protein) |
